Measured values reported in patent US6949522B2, “β-2′- or 3′-halonucleosides” (Pharmasset, Inc., priority 2001, dated 2005).

System: HepG2
Experiment: Toxicity assay (MTS/MTT dye), HepG2 cells
Settings: HepG2, three day-incubation (Table 1)
Method: After a three day-incubation for HepG2, or 5 days for human PBM cells, cell viability and mitochondrial activity were measured in a colorimetric assay using the MTS- or MTT dye method (Promega, Madison, Wis.).

`NC(=O)c1ncn([C@@H]2O[C@H](CO)[C@@H](O)[C@H]2O)n1` [Ribavirin, 1-β-D-ribofuranosyl-1H-,1,2,4-triazole-3-carboxamide, reference compound] was tested. Which “Cytotoxicity HepG2 IC30” value did it give?
Its value is 90 µM.
